Data taken from patent publication US4254127A, “1,3-Dihydro-1-[(1-piperidinyl)alkyl]-2H-benzimidazol-2-one derivatives” (Janssen Pharmaceutica, N.V., priority 1980, dated 1981).

system: norepinephrine-induced mortality; assay: combined test in rats: norepinephrine (NOR)-induced mortality; details: s.c., norepinephrine 1.25 mg/kg i.v. at 120 minutes, dose protecting 50% of animals

Point of comparison: Cc1ccc2c(c1)[nH]c(=O)n2CCN1CCC(CC(=O)c2ccc(F)cc2)CC1 [5-CH3, H, H, (CH2)2, CO, 4-FC6 H4, base], “ED50 (NOR)-rat” value 1.25 mg/kg. Against it:
- O=C(CC1CCN(CCn2c(=O)[nH]c3ccccc32)CC1)c1ccc(F)cc1 [H, H, H, (CH2)2, CO, 4-FC6 H4, base, 1-[2-[4-[2-(4-fluorophenyl)-2-oxoethyl]-1-piperidinyl]ethyl]-1,3-dihydro-2H-benzimidazol-2-one] — 2-fold higher, 2.5 mg/kg
- CC(CCn1c(=O)[nH]c2ccccc21)N1CCC(CC(=O)c2ccc(F)cc2)CC1 (centres unmarked) [H, H, H, [drawing 21], CO, 4-FC6 H4, base, 1-[3-[4-[2-(4-fluorophenyl)-2-oxoethyl]-1-piperidinyl]butyl]-1,3-dihydro-2H-benzimidazol-2-one] — 4-fold lower, 0.31 mg/kg
- O=C(CC1CCN(CCn2c(=O)[nH]c3cc(F)ccc32)CC1)c1ccc(F)cc1 [5-F, H, H, (CH2)2, CO, 4-FC6 H4, base] — 2-fold higher, 2.5 mg/kg
- O=C(CC1CCN(CCCn2c(=O)[nH]c3ccccc32)CC1)c1ccc(F)cc1 [H, H, H, (CH2)3, CO, 4-FC6 H4, base, 1-[3-[4-[2-(4-fluorophenyl)-2-oxoethyl]-1-piperidinyl]propyl]-1,3-dihydro-2H-benzimidazol-2-one] — 7.8-fold lower, 0.16 mg/kg
